{"source": "patent US10456414B2", "about": "“Methods for treating HCV” (priority 2011, dated 2019)", "key": {"[1]": {"system": "Huh-7 cells carrying an HCV genotype 1a replicon", "conditions": "with 320 nM Compound 10 and the highest concentration of the listed compound"}, "[2]": {"system": "Huh-7 cells carrying a HCV genotype 1a replicon", "assay": "Cytotoxicity combination studies with Compound 4, MacSynergy II"}, "[3]": {"conditions": "in combination with Compound 4, mean ± standard deviation"}}}
{"smiles": "NC(=O)c1ncn([C@@H]2O[C@H](CO)[C@@H](O)[C@H]2O)n1", "note": "[Ribavirin, 1-β-D-ribofuranosyl-1H-1,2,4-Triazole-3-carboxamide, reference compound]", "values": [{"measurement": "Cytotoxicity at Highest Concentration of Compound Combinations (% inhibition on cell growth)", "setting": "[1]", "value": "14.0 ± 4.4", "unit": "%"}, {"measurement": "Interaction (cytotoxicity)", "setting": "[2]; in combination with Compound 4", "value": "Additivity (Additivity: ≤25 and >−25 nM^2%)"}, {"measurement": "Antagonism Volume (cytotoxicity)", "setting": "[2]; [3]", "value": "−1 ± 2", "unit": "nM^2%"}, {"measurement": "Synergy Volume (cytotoxicity)", "setting": "[2]; [3]", "value": "4 ± 3", "unit": "nM^2%"}]}
